# According to patent US10801054B2 (priority 2013, dated 2020):
# System: Phage litmus
smiles,measurement,value
"CC(C)O [IPA, isopropyl alcohol]",Color change of Phage litmus bands upon exposure,immediately changed color
same,Red-green-blue (RGB) color differences G3,1.88 and 1.56 and 1.36
same,Red-green-blue (RGB) color differences G4,0.75 and 1.03 and 1.07
same,Red-green-blue (RGB) color differences R1,1.16 and 1.23 and 1.28
same,Time in which all color matrices of the Phage litmus responded,30 s

# Several values for one entry are separate records, joined by “and”; a condition that tells them apart may be missing. Equal entries are not always repeated.
